Reference: US9845308B2, “Isoindoline inhibitors of ROR-gamma” (Vitae Pharmaceuticals, Inc., priority 2014, dated 2017)

Sequences of proteins named here, by UniProt entry; tags and fusion partners are left off. A line that says so, or that is headed by a name, gives the form on record, which may keep a tag or linker. Residues count along the entry.
UniProt P51449, other isoform, or with tags, fused parts or gaps: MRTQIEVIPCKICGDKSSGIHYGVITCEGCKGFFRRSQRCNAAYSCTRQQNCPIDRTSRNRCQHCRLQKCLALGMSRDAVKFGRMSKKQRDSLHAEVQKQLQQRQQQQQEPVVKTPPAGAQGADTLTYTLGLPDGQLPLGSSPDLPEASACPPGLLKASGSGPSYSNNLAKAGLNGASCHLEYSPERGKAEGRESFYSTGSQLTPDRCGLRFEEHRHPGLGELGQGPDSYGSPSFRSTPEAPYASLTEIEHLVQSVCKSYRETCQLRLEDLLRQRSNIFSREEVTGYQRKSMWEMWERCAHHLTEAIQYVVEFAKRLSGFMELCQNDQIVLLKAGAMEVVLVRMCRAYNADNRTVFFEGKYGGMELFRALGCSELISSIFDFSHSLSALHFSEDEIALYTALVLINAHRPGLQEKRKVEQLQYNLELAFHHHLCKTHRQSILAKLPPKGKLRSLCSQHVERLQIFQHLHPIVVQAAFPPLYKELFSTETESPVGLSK
UniProt P51449, 269-508: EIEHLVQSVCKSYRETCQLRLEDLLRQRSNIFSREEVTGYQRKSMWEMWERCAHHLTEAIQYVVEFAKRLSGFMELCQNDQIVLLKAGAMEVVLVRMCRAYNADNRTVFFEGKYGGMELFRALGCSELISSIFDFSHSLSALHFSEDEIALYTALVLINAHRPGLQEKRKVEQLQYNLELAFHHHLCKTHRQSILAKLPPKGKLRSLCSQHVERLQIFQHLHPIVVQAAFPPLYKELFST

Tests used:
[1] = target: full-length RORγt in Jurkat cells (Homo sapiens (Human), UniProt P51449); experiment: RORγt 5×RORE Assay in Jurkat Cells (Assay 2); type: cell-based; conditions: 5xRORE secreted Nanoluc luciferase reporter, 16-18 hrs, read-out: RORγt5X IC50 Range* (nM) (Assay 2)
Description: [formula] RORγt 5×RORE Assay in Jurkat Cells (Assay 2)
Compounds of the present invention were tested for RORγ inverse agonist activity in a cell-based, transcriptional activity assay. […] (Promega, Cat. #N1021) using KpnI and HindIII restriction sites. […] Tested compounds were added to the cells in the same media (final concentration of DMSO was 0.1% (v/v)), and the plates were incubated at 37° C./5% CO2 for 16-18 hrs. Luciferase activity in the conditioned supernatants was determined with NanoGlo® assay reagents (Promega, Cat.#N1130).

[2] = target: recombinant RORγ Ligand Binding Domain (LBD) protein (Homo sapiens (Human), UniProt P51449); experiment: Radio-Ligand RORγ Binding Assay (Assay 1); conditions: read-out: RORγ Binding Ki Range* (nM) (Assay 1)
Description: Radio-Ligand RORγ Binding Assay (Assay 1)
Compounds of the present invention were tested for ability to bind to RORγ in a cell-free competition assay with commercially available radio-ligand (RL), 25-hydroxy[26,27-^3H]-cholesterol (PerkinElmer, Cat. #NET674250UC), for a ligand binding site on a recombinant RORγ Ligand Binding Domain (LBD) protein expressed as a 6×His-Glutathione-S-Transferase (GST) fusion. […] The plate was shaken at 700 rpm for 20 min and incubated for 10 min at rt, after which 40 μL of poly-Lys YSi SPA beads (PerkinElmer, Cat. #RPNQ0010) were added to achieve 50 μg of the beads per well. The plate was incubated on an orbital shaker for 20 min and then for 10 min without agitation at rt. SPA signal for tritium beta radiation was registered on PerkinElmer Microbeta plate reader. […] The percent inhibition vs. concentration data were fit into a four-parameter model, and IC50 values were calculated from the fit as the concentrations corresponding to the inflection points on the dose-response curves. […]

[3] = competition with 25-hydroxy[26,27-3H]-cholesterol, SPA

Structure (SMILES)	IC50 [1]	Ki [2, 3]	Ki [2]
CCO[C@H]1CC[C@H](CN2Cc3cc(C(=O)N[C@@H](CCO)c4ccc(S(=O)(=O)CC)cc4)ccc3[C@@H]2C(C)C)CC1 (single isomer, unassigned) [Compound 10a]	< 100 nM	< 100 nM	–
CCO[C@H]1CC[C@H](CN2Cc3cc(C(=O)N[C@@H](CCO)c4ccc(S(=O)(=O)CC)cc4)ccc3[C@H]2C(C)C)CC1 (single isomer, unassigned) [Compound 10b]	–	100 to 1000 nM	–
CCS(=O)(=O)c1ccc(CNC(=O)c2ccc3c(c2)C(=O)N(C[C@H]2CC[C@H](C(F)(F)F)CC2)[C@H]3C(C)C)cc1 [Compound 29, (S)—N-(4-(ethylsulfonyl)benzyl)-1-isopropyl-3-oxo-2-((trans-4-(trifluoromethyl)cyclohexyl)methyl)isoindoline-5-carboxamide]	< 100 nM	–	< 100 nM

Now from value to compound, other results behind:

IC50 [1]	Ki [2, 3]	Structure (SMILES)	Ki [2]
< 100 nM	< 100 nM	CCS(=O)(=O)c1ccc(CNC(=O)c2ccc3c(c2)CN(CC2CCC(O)(C(F)(F)F)CC2)C3C(C)C)nc1 (single isomer, unassigned) [Compound 11a]	–
–	100 to 1000 nM	CCS(=O)(=O)c1ccc(CNC(=O)c2ccc3c(c2)CN(CC2CCC(O)(C(F)(F)F)CC2)C3C(C)C)nc1 (single isomer, unassigned) [Compound 11b]	–
–	< 100 nM	CCS(=O)(=O)c1ccc(CNC(=O)c2ccc3c(c2)CN(CC2CCC(O)(C(F)(F)F)CC2)C3C(C)C)nc1 (single isomer, unassigned) [Compound 11c]	–
–	> 1000 nM	CCS(=O)(=O)c1ccc(CNC(=O)c2ccc3c(c2)CN(CC2CCC(O)(C(F)(F)F)CC2)C3C(C)C)nc1 (single isomer, unassigned) [Compound 11d]	–

Read-outs that look alike come from different tables or passages of the source.
